Patent publication US6011070A, “Slow-onset, long-lasting dopamine reuptake blockers” (priority 1997, dated 2000)

Protein sequences, listed by entry. Tags and fused reporters are not part of them.
UniProt P23977, whole entry: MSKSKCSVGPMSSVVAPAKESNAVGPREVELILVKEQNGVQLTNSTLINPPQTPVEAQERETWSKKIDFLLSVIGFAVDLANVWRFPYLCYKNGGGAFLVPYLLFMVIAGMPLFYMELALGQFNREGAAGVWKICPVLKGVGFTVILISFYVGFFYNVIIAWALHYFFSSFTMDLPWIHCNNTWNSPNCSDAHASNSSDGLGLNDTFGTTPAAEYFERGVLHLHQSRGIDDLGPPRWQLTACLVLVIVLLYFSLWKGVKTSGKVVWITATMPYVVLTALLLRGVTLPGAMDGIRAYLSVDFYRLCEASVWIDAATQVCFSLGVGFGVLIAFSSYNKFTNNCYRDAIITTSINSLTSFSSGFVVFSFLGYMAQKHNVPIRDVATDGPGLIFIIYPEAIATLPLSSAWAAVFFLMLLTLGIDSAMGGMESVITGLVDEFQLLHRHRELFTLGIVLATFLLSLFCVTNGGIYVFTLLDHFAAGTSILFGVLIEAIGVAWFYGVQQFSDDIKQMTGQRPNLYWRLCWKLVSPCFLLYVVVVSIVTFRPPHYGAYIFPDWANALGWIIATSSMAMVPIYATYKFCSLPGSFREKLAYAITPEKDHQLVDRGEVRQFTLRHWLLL

Experiments:
dopamine transporter [1] = biological target: T1, dopamine transporter (Rattus norvegicus, UniProt P23977); assay: Inhibition of binding of dopamine to the dopamine transporter (Example 4)
T1 construct: from tissue

dopamine transporter [2] = biological target: T1, dopamine transporter; assay: Inhibition of dopamine reuptake (Example 4); type: biochemical; conditions: read-out: DA Uptake, inhibition of dopamine reuptake IC50

## CNC1CC(c2ccc(Cl)c(Cl)c2)c2ccccc21 (centres unmarked) [Compound 5]
Dopamine transporter [1]
  IC50: 9.5 nM
Dopamine transporter [2]
  IC50: 9.8 nM
